According to US7166739B2, “Esters of monomethyl branched alcohols and process for preparing and using same in cosmetics and personal care products” (Finetex, Inc., priority 2004, dated 2007):

How the values were obtained:
Format in all cases: physicochemical
[1] = Viscosity of esters (typical properties); settings: @ 25° C.
Method: (§1) An analysis of the esters of the invention, i.e., Benzoate ester (Ref. No. 130-63); Octanoate Ester (Ref. No. 130-67); and Maleate Ester (Ref. No. 134-26), was conducted as to appearance, color, percentage water, acidity, saponification value, surface tension, spreading coefficient, freezing point, refractive index and specific gravity. The results are presented in Table I which identifies typical properties of the esters of the invention.

[2] = Surface tension of esters (typical properties)
Method: as §1

[3] = Spreading coefficient of esters (typical properties); set-up: unit not given here
Method: as §1

| Substance | Viscosity [1] | Surface Tension [2] | Spreading Coefficient [3] |
| --- | --- | --- | --- |
| C16–17 alkyl octanoate [Octanoate Ester (130-67)] | 44 cps | 32.5 dynes/cm | 32.5 |
| C16–C17 alkyl benzoate [Benzoate Ester (130-63)] | 60 cps | 32 dynes/cm | 33.5 |
